Experimental data published in ChEMBL document CHEMBL1145387, “Carbonic anhydrase activators: activation of the human isoforms VII (cytosolic) and XIV (transmembrane) with amino acids and amines” (Bioorg Med Chem Lett, 2007).

Assays:
N[C@@H](Cc1ccccc1)C(=O)O [1] = details: Homo sapiens; 10 uM
N[C@H](Cc1ccccc1)C(=O)O = details: Homo sapiens; 10 uM
N[C@@H](Cc1ccccc1)C(=O)O [2] = details: Homo sapiens; 10 uM; remark: listed apart in the source
[3] = molecular target: Carbonic anhydrase 14 (Homo sapiens) (UniProt Q9ULX7); test: Activation of human recombinant CA14 by CO2 hydrase assay
[4] = molecular target: Carbonic anhydrase 7 (Homo sapiens) (UniProt P43166); test: Activation of human recombinant CA7 by CO2 hydrase assay

In the case of “Carbonic anhydrase 2 (Homo sapiens) (from UniProt P00918)”, the kcat (N[C@@H](Cc1ccccc1)C(=O)O [1]) is reported as 5.7 10^6/s and the kcat (N[C@H](Cc1ccccc1)C(=O)O) is reported as 5.2 10^6/s.
In the case of “Carbonic anhydrase 1 (Homo sapiens), P00915”, the kcat (N[C@@H](Cc1ccccc1)C(=O)O [2]) is reported as 19.8 10^5/s.
Work on `N[C@@H](Cc1ccccc1)C(=O)O` yielded a KA [3] of 0.24 µM and a KA [4] of 10.9 µM.
`N[C@H](Cc1ccccc1)C(=O)O` showed a KA [3] of 7.21 µM.
